The results in this text go back to article PMC6677629 (Cancer immunology research, 2019).

The chains behind the UniProt entries cited, without tags or fusion partners. Residues count along the entry.
UniProt Q8NHJ6, 22-448: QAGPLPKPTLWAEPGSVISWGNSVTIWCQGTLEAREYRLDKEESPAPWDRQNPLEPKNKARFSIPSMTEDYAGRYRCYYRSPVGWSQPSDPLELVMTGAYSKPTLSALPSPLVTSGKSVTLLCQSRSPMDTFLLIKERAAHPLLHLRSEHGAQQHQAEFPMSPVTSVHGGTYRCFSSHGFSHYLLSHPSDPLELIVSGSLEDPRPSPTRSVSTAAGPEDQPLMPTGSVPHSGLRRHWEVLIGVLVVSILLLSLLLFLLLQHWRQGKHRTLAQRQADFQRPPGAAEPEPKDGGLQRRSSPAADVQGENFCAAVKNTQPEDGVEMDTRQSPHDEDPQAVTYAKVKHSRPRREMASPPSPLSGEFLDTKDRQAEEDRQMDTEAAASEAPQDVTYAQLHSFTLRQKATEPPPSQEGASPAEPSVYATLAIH

The target in assay [1] is T1, recombinant LILRB4 (Homo sapiens, UniProt Q8NHJ6). Briefly: BLI.
Assay [2] deals with T1, recombinant LILRB4. Briefly: ELISA.

B1: humanized LILRB4 mAb h128–3 (antibody, V domains shown)
VH: EVQLLESGGGLVQPGGSLRLSCAASGIDFSNHYYMYWVRQAPGKGLEWIGSIFSGDSASTYYADSAKGRFTISRDNSKNTLYLQMNSLRAEDTAVYYCARGMSTNDWASDLWGQGTLVTVSS
VL: DIQMTQSPSSLSASVGDRVTITCQASESINSIYLAWYQQKPGKAPKLLIYRASTLASGVPSRFSGSGSGTDFTLTISSLQPEDFATYYCQQSYDWGDVENTFGGGTKVEIK
Consider B1, for which the Kd with recombinant LILRB4 [1] was 3.5 nM. The EC50 with recombinant LILRB4 [2] worked out at 0.23 nM.

B2: h128–3 S103A (HCDR3) (antibody, V domains shown)
VH: EVQLLESGGGLVQPGGSLRLSCAASGIDFSNHYYMYWVRQAPGKGLEWIGSIFSGDSASTYYADSAKGRFTISRDNSKNTLYLQMNSLRAEDTAVYYCARGMATNDWASDLWGQGTLVTVSS
VL: DIQMTQSPSSLSASVGDRVTITCQASESINSIYLAWYQQKPGKAPKLLIYRASTLASGVPSRFSGSGSGTDFTLTISSLQPEDFATYYCQQSYDWGDVENTFGGGTKVEIK
As for B2, the binding result with recombinant LILRB4 [2] is given as “binds”.

B3: h128–3 Y33A (LCDR1) (antibody, V domains shown)
VH: EVQLLESGGGLVQPGGSLRLSCAASGIDFSNHYYMYWVRQAPGKGLEWIGSIFSGDSASTYYADSAKGRFTISRDNSKNTLYLQMNSLRAEDTAVYYCARGMSTNDWASDLWGQGTLVTVSS
VL: DIQMTQSPSSLSASVGDRVTITCQASESINSIALAWYQQKPGKAPKLLIYRASTLASGVPSRFSGSGSGTDFTLTISSLQPEDFATYYCQQSYDWGDVENTFGGGTKVEIK
For B3, the binding result in the assay with recombinant LILRB4 [2] was “no binding”.

B4: h128–3 Y34A (HCDR1) (antibody, V domains shown)
VH: EVQLLESGGGLVQPGGSLRLSCAASGIDFSNHYAMYWVRQAPGKGLEWIGSIFSGDSASTYYADSAKGRFTISRDNSKNTLYLQMNSLRAEDTAVYYCARGMSTNDWASDLWGQGTLVTVSS
VL: DIQMTQSPSSLSASVGDRVTITCQASESINSIYLAWYQQKPGKAPKLLIYRASTLASGVPSRFSGSGSGTDFTLTISSLQPEDFATYYCQQSYDWGDVENTFGGGTKVEIK
As for B4, the binding result with recombinant LILRB4 [2] is reported as “no binding”.

B5: h128–3 Y93A (LCDR3) (antibody, V domains shown)
VH: EVQLLESGGGLVQPGGSLRLSCAASGIDFSNHYYMYWVRQAPGKGLEWIGSIFSGDSASTYYADSAKGRFTISRDNSKNTLYLQMNSLRAEDTAVYYCARGMSTNDWASDLWGQGTLVTVSS
VL: DIQMTQSPSSLSASVGDRVTITCQASESINSIYLAWYQQKPGKAPKLLIYRASTLASGVPSRFSGSGSGTDFTLTISSLQPEDFATYYCQQSADWGDVENTFGGGTKVEIK
For the molecule B5, the binding result with recombinant LILRB4 [2] is “no binding”.
